Several values for one entry are separate records, joined by “and”; a condition that tells them apart may be missing. Equal entries are not always repeated.
Biological target: T1, Alpha-1A adrenergic receptor (Rattus norvegicus, UniProt P43140)
T1 sequence (P43140 whole entry): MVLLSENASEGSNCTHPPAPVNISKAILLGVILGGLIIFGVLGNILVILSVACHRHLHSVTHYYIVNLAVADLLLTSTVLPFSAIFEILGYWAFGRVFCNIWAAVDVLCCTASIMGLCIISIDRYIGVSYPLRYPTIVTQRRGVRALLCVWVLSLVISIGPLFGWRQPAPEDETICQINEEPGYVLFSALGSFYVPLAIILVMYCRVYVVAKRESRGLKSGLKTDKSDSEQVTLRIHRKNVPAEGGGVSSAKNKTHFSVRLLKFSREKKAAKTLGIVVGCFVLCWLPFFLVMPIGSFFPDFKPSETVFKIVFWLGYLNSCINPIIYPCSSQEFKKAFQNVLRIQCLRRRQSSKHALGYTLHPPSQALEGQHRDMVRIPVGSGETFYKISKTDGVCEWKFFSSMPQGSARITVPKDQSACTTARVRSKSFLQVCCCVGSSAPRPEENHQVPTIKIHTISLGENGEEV

COC(=O)[C@@H]1[C@H]2C[C@H]3c4[nH]c5ccccc5c4CCN3C[C@@H]2CC[C@@H]1O [yohimbic acid methyl ester]
Ki: 0.236 µM and 0.23 µM

From BindingDB's records for doi:10.1007/bf00506193 (1984)
